Measured values reported in article PMC12137875 (Nature Communications, 2025).

By UniProt entry, the sequences of proteins in these tests, tags left out.
UniProt Q96S37, whole entry L9Q/M22V/M25V/S27P/A51V/I63V/L64P/S66A: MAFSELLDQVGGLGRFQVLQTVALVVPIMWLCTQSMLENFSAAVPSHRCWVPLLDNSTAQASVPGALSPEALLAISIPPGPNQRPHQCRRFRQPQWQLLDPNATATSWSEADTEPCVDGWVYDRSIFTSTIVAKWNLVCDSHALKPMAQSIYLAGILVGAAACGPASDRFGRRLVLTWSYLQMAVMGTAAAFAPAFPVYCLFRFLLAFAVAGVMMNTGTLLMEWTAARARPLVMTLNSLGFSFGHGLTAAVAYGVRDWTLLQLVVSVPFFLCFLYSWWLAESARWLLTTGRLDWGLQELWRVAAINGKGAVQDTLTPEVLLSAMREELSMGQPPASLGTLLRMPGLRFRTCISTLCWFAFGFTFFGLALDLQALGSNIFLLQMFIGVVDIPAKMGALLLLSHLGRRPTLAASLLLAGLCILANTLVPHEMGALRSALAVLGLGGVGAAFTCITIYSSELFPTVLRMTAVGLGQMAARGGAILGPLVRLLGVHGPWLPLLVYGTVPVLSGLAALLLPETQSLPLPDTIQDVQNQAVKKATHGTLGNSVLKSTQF

Legend:
[1] = target: URAT1CS (Homo sapiens, UniProt Q96S37, A51V/I63V/L64P/L9Q/M22V/M25V/S27P/S66A, form not given); assay type: cell-based; details: HEK293T cells expressing hURAT1 versus URAT1CS
[2] = target: hURAT1 (Homo sapiens, UniProt Q96S37); assay type: cell-based; details: Competitive model, global non-linear fit, value with 95% confidence interval

Structure (SMILES): O=C(O)CSc1nnc(Br)n1-c1ccc(C2CC2)c2ccccc12 [LESU, lesinurad]
- Inhibitor binding to URAT1CS as judged from IC50 [1]: high affinity
- Ki [2]: 348 nM
